For orientation: IC50 means the concentration that gives 50% inhibition.

Amino acid sequences for entries named in this document (tags omitted). A change or cut given only in a name is not applied to a line headed by its entry.
UniProt P42330: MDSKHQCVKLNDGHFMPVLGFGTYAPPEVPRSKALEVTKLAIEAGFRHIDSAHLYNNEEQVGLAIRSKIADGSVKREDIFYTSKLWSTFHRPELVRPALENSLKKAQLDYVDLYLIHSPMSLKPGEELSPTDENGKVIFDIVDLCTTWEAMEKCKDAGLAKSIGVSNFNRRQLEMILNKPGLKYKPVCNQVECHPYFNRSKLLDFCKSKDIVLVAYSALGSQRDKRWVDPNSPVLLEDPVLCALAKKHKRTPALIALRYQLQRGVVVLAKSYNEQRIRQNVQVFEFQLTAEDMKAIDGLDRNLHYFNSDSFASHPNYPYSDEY

In the assay the target is AKR1C3 (Homo sapiens (Human), UniProt P42330). Nature of the assay: S-tetralol oxidation assay, AKR1C3. It counts as biochemical. Particulars: for Ratio IC50 value (AKR1C2/AKR1C3): selectivity for AKR1C3 over AKR1C2. The protocol:
Enzymes were purified to constant specific activity and their purity established by SDS-PAGE. All AKR enzymes were stored at −80° C. in 20 mM potassium phosphate buffer pH 7.0 containing 30% glycerol, 1 mM EDTA, and 1 mM β-mercaptoethanol. […] The specific activities of AKR1C enzymes were determined by measuring the formation of NADH at 340 nm using a Beckman DU640 spectrophotometer. […] The mixtures were incubated at 25° C. (AKR1C1 and 1C4) or 37° C. (AKR1C2 and 1C3) for 3 min, followed by adding a serial dilution of enzyme solution to a final volume of 1 mL to initiate the reaction. After continuously monitoring for 5 min, the increase in UV absorption using different concentrations of enzyme were recorded to calculate the initial velocity of substrate oxidation and determine enzyme-specific activity.
Reagents were mixed and incubated at 37° C. for 10 min followed by adding AKR1C enzymes to initiate the reaction. […] To determine the pattern of inhibition, five fixed concentrations of S-tetralol were used and four different concentrations of inhibitor were used and a gobal fit of the equations for COMP, NONCOMP and UNCOMP to the data was applied using Grafit.

For the molecule `CCc1ccc2cc(C(C)C(=O)O)ccc2c1` (racemic) [LM5751(±) 2, 2-(6-Ethylnaphthalen-2-yl)propanoic Acid], the “Ratio IC50 value (AKR1C2/AKR1C3)” value (Table 1) worked out at 15.

For `CSc1ccc2cc(C(C)C(=O)O)ccc2c1` (racemic) [LM5752(±) 4, 2-(6-(Methylthio)naphthalen-2-yl)propanoic Acid], the “selectivity for AKR1C3 over AKR1C2” value (S-tetralol oxidation) was determined as 25 fold. Further, the “Ratio IC50 value (AKR1C2/AKR1C3)” value (Table 1) was determined as 25.

For the molecule `CCOc1ccc2cc(C(C)C(=O)O)ccc2c1` (racemic) [LM5753(±) 3, 2-(6-Ethoxynaphthalen-2-yl)propanoic Acid], the “Ratio IC50 value (AKR1C2/AKR1C3)” value (Table 1) worked out at 24.

Consider `CSc1ccc2cc([C@@H](C)C(=O)O)ccc2c1` [(R)-4a, 2(R)-(6-(methylthio)naphthalen-2-yl)propanoic acid], for which the “selectivity for AKR1C3 over AKR1C2” value (S-tetralol oxidation) was found to be 87 fold. The “Ratio IC50 value (AKR1C2/AKR1C3)” value (Table 1) amounted to 87.

Turning to `COc1ccc2cc([C@@H](C)C(=O)O)ccc2c1` [R-Naproxen (1a), reference compound], the IC50 worked out at 50 ± 4 nM (NADP+ dependent oxidation of S-tetralol, S-tetralol at Km, Table 1); 50 nM (S-tetralol oxidation); 50 nM (Table 2).

Regarding `COc1ccc2cc([C@H](C)C(=O)O)ccc2c1` [S-Naproxen (1), (S)-2-(6-methoxynaphthalen-2-yl)propanoic acid, reference compound], the half-inhibitory concentration (IC50) (Table 2) is 180 nM.

(Values after patent US11459295B2, “2-beta-naphthyl-acetic acid analogs as AKR1C3 inhibitors and methods of using same” (THE TRUSTEES OF THE UNIVERSITY OF PENNSYLVANIA, priority 2015, dated 2022).)
